According to US4415495A, “5,6;8,9-Tetrahydro-7H-dibenz(d,f)azonines” (Godecke Aktiengesellschaft, priority 1981, dated 1983):

How the values were obtained:
in vivo = conditions: mouse, po
Experimental: The compounds according to the present invention are administered intragastrally to male mice (NMRI) with a body weight of from 20 to 25 g. Each dosage group consists of 4 animals. The LD50 values are determined after having observed the animals for 7 days.

[1] = test system: Rats with calcium chloride induced arrhythmias; assay: Calcium chloride induced arrhythmias in narcotised rats (prophylactic i.v. administration); type: in vivo; conditions: in comparison with control animals or procainamide
Text: By means of the intravenous infusion of a calcium chloride solution, […] induced in narcotised rats which, after termination of the infusion, continue for a certain period of time (modification of the method described by Malinow et al., Arch. Int. Pharmacodyn, 102, 266/1955). This arrhythmic phase is shortened by the prophylactic administration of antiarrhythmic drugs. The activities of the compounds according to the present invention are compared with those of procainamide and phenytoin. The results of the experiments with calcium chloride induced arrhythmias on rats are summarized in the following Table I. The average period of arrhythmia is calculated from experiments with at least 10 animals.

With `O=C1NC(=O)C(c2ccccc2)(c2ccccc2)N1` [phenytoin, reference compound] as the compound, how does the LD50 at 168 h (in vivo) read?
The LD50 at 168 h was 150 mg/kg.

And the “antiarrhythmic action / period of arrhythmia (in words)” value [1]?
The value was “did not exhibit an antiarrhythmic action”.
